The assay relates to A. baumannii clinical isolate NY F. Kind of assay: Antibiotic susceptibility profile. Format: cell-based, Acinetobacter baumannii.

`C[C@H]1COc2c(N3CCN(C)CC3)c(F)cc3c(=O)c(C(=O)O)cn1c23` [LVX, Levofloxacin]: the Antibiotic susceptibility entry is given as “I”.

Turning to `CN(C)c1ccc(O)c2c1C[C@H]1C[C@H]3[C@H](N(C)C)C(O)=C(C(N)=O)C(=O)[C@@]3(O)C(O)=C1C2=O` [MIN, Minocycline], the Antibiotic susceptibility result was “S”.

The values are drawn from patent US20080090734A1, “DRUG SCREENING AND TARGET IDENTIFICATION USING SPR IMAGING OF TARGET PROTEIN ARRAYS” (The Trustees of California State University, priority 2006, published 2008).
